Paper PMC5979965, “Structure-based discovery of mPGES-1 inhibitors suitable for preclinical testing in wild-type mice as a new generation of anti-inflammatory drugs” (Scientific Reports, 2018)

Amino acid sequences for entries named in this document (tags omitted).
UniProt Q9JM51, whole entry: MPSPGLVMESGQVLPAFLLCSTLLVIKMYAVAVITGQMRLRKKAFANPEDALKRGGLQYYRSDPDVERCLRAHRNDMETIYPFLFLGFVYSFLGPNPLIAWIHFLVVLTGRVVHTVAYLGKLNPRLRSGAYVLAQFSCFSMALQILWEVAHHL

Legend:
mouse mPGES-1 = mouse mPGES-1 (Mus musculus, UniProt Q9JM51); experiment: Activity assay using recombinant mouse mPGES-1 (PGE2 enzyme immunoassay); conditions: read-out: IC50 (nM) against mPGES-1, Mouse mPGES-1; Mean ± SD of measurements in triplicate
COX-1/2 = experiment: Activity assay of COX-1/2 (mixture of equal amounts of COX-1 and COX-2, Cayman COX inhibitor screening kit); conditions: compound at 100 µM, equal amounts of COX-1 and COX-2 in terms of enzyme activities

SMILES | IC50 (mouse mPGES-1) [nM] | COX-1/2 Inhibition (%) at 100 µM (COX-1/2) [%] | COX-1/2 Inhibition (%) at 100 µM (COX-1/2; listed as 4 g)
O=C1NC(=O)C(=Cc2ccc(OCCCCC3CCCCC3)c(Br)c2)C(=O)N1 | 917 | – | –
Cc1cc(C=C2C(=O)NC(=O)NC2=O)ccc1OCCCCC1CCCCC1 | 18900 | – | –
CCOc1cc(C=C2C(=O)NC(=O)NC2=O)ccc1OCCCCC1CCCCC1 | – | 0 ± 15.1 | did not significantly inhibit
O=C1NC(=O)C(=Cc2ccc(OCCCCC3CCCCC3)c([N+](=O)[O-])c2)C(=O)N1 | 698 | – | –
